Molecular target: Bifunctional epoxide hydrolase 2 (Homo sapiens, UniProt P34913)
Test: Inhibition of sEH (unknown origin) using PHOME as substrate after 40 mins by fluorescence photometric method

Sequences of proteins named here, by UniProt entry; tags and fusion partners are left off.
UniProt P34913, whole entry: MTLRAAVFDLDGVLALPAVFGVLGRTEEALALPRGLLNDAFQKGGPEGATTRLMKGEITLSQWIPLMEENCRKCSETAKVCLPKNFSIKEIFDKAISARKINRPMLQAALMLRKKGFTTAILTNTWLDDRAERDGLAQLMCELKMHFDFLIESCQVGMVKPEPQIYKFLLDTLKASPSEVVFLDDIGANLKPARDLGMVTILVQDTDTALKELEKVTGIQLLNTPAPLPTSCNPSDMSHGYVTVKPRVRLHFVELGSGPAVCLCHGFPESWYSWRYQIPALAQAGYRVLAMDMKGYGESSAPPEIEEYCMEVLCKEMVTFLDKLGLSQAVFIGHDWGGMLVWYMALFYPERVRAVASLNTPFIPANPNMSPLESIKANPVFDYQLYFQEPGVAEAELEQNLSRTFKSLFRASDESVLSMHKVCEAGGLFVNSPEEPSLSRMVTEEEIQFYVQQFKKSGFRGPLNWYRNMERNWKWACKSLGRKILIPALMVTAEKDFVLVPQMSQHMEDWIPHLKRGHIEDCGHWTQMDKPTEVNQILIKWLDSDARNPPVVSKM

CCCCOC(=O)CCCCCCCCCCCNC(=O)NC12CC3CC(CC(C3)C1)C2
IC50: 7.8 nM

— ChEMBL document CHEMBL4007474, “Soluble epoxide hydrolase inhibitors of indolinone alkaloids and phenolic derivatives from Cimicifuga dahurica (Turcz.) Maxim” (Bioorg Med Chem Lett, 2017)
